## AlphaSeq binding of Ab-14 heavy chain variants to a spike HR2 peptide

Source: Li et al. 2023 (doi:10.1038/s41467-023-39022-2), MIT Lincoln Laboratory and A-Alpha Bio; data file from the FLAb repository.

Target: peptide PDVDLGDISGINAS, taken from heptad repeat 2 (HR2) of SARS-CoV-2 spike.

The variants keep the light chain, the linker and the frameworks of Ab-14 (scFv order VH, three GGGGS repeats, VL).
VH: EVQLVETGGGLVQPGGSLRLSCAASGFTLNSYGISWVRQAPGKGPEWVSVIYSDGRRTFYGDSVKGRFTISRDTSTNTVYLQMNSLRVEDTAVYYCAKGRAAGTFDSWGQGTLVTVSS
VL: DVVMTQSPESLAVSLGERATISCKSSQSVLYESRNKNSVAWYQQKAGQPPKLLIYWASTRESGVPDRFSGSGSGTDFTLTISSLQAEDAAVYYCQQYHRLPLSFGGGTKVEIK

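The starting antibody came from a phage panning campaign against this peptide. These sequences belong to a second round, designed from the earlier measurements on random variants of the parent. Several design methods are mixed in this list. The scFvs were displayed on barcoded MATa yeast, the peptide on MATalpha yeast. Binding brings cells together so that they mate, and sequencing counts the barcode pairs among the diploids. A regression on co-assayed BCL2-family reference pairs converts the normalised counts of each replicate to an apparent Kd. Mating was done six times.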

The parent's heavy chain CDRs are GFTLNSYGIS, VIYSDGRRTFYGDSVK, GRAAGTFDS; each variant's own CDRs replace them letter for letter.
Affinities are written as log10 Kd with Kd in nM; a lower number is a better binder.
Averages over replicates are reported, and they cover detected replicates only.
A pair that was not seen in any replicate is written "not detected"; this usually means weak binding, but a binder can also be missed.

CDR-H1,CDR-H2,CDR-H3,"mean, log10 nM",detected
GFDLNEYGIS,VIYADGVRKAYADSVK,GNNAGTFDI,-0.43,6 of 6
GPSIDEYGIS,VIYADGVRQQYQDDVK,GQIGGFFNY,not detected,0 of 6
GFDLQEYGIS,VIYADGKRSMYSNDVK,GEVGLGELI,1.25,1 of 6
GFTLNSYGIS,VIYSDGRRTFYADSVK,GRGAATFDS,2.58,6 of 6
GFELNSYGIS,VIYSDGRRTFYGDNVK,GMQAGTFDS,0.87,6 of 6
GFDLNSYGIS,VIYSDGRRTFYGDSVK,GHTAGTFDS,0.94,6 of 6
YFSLNSYGIS,VIYADGRRTFYGDSVK,GEAAGTFDS,1.05,5 of 6
GKDINEYGVS,VIYADGKRNAYINSVK,GKNAGAFVD,0.74,1 of 6
GFFLNEYGIS,VIYSDGRRTFYGDSVK,GQTAGTFDS,0.71,1 of 6
GFQLNSYGIS,VIYSDGRRTFYSDSVK,GHAAGTFDD,0.80,2 of 6
GFTLDSYGIS,VIYSDGQRTFKLDSVK,GRAAGTALS,not detected,0 of 6
GFDLNDYGIS,VIYADGRRTAYIDSVK,GEVAGTFDT,-0.30,6 of 6
GFTVNSYGIS,VMYSDGRRTFYTDSVK,GRAAGTFDW,2.56,1 of 6
GQDLDEYGVS,VIYADGQRTQYTNDVK,GNYSGAVII,not detected,0 of 6
GFTLNEYGIS,VIYSDGRRTFIGDSVK,DRAAGTFDS,not detected,0 of 6
GFSLNSYGIS,VIYSDGRRTFYIDSVK,GQAAGTFDT,0.85,6 of 6
GFDLDEYGIS,VIYADGRRTFYADSVK,GTVAGTFDA,-0.43,6 of 6
GFTLNSYGIS,VIYSDGRRTAYGDSVK,TRAAGQFIS,1.79,1 of 6
GFDLNEYGIS,VIYADGMRTFYTDSVK,GEVAGTFDK,-0.38,6 of 6
GFDLNEYGIS,VIYADGMRTSYADSVK,GENAGTFDM,0.13,6 of 6
GFTLESYGIS,VIYSDGRRTFYGDSVK,GRNAGTFDS,0.74,2 of 6
GFDLNEYGIS,VIYADGMRTVYADSVK,GENAGTFDT,0.60,6 of 6
GFDLNEYGIS,VIYADGRRTFYVDSVK,GTNAGTFDS,-0.73,6 of 6
GFSLNEYGIS,VIYSDGRRTFYGESVK,GKAAGTFDS,0.44,6 of 6
GFSLNSYGIS,VIYSDGRRTFYGDSVK,GHAAGTFDS,0.05,6 of 6
GFRLNSYGIS,VIGSDGRRTFYGDSVK,GRAAGWFNS,0.87,1 of 6
GFNLNSYGIS,VIYSDGRRTFYGDSVK,GKTAGTFDA,0.90,6 of 6
GFDLNEYGIS,VIYADGRRTAYTDSVK,GNQAGTFDV,0.34,6 of 6
GFEIQEYGIS,VIYADGRRTAYAENVK,GTMAGTLST,0.44,6 of 6
GFTINSYGIS,VIYSDGRRTFYSDSVK,GKAAGTFDS,1.19,6 of 6
GFDLNEYGIS,VIYADGQRTFYADSVK,GQVAGTFDM,-0.68,6 of 6
GFDLDEYGIS,VIYADGMRTFYADSVK,GNIAGTFDL,-0.82,6 of 6
GFTLDSYGIS,VIYSDGRRTFYGDSVK,GRAAGTFDV,1.07,5 of 6
KFNLNSYGIS,VIYSDGRRTFYIDSVK,GRQAGTFDS,1.45,1 of 6
GFTLNSYGIS,VIYSDGMRTFYLGSVK,GRAAGTFLS,not detected,0 of 6
KFTLNSYGIS,VIYSDGQRTFYSDSVK,GQTAGTFDS,0.89,6 of 6
GFDLEEYGIS,VIYADGMRAAYANNVK,GVKGINVTI,not detected,0 of 6
GFSLNSYGIS,VIYSDGRRTFYADSVK,GKAAGTFDL,0.36,1 of 6
GQSLDDYGIS,VIYADGQRKAAADEVK,GENAGTFDI,not detected,0 of 6
GFDLNEYGIS,VIYADGMRTFYADSVK,GENAGTFDQ,-0.27,6 of 6
GYDLDDYGIS,VIYADGKRTSYAESVK,GLIGGSLSN,not detected,0 of 6
GFTLNMYGIS,VIYSDGRRTFYGDSVK,GRKAGTFDS,not detected,0 of 6
GFDLNEYGIS,VIYADGRRTFYSDSVK,GQVAGTFDS,0.96,1 of 6
GFTLNSYGIS,VIYADPRRTFYGDSVK,GGAAGTFDS,1.75,1 of 6
GFDLNEYGIS,VIYADGRRTAYVDSVK,GEQAGTFDV,-0.44,6 of 6
GFELNSYGIS,VIYSDGRRTFYADSVK,GATAGTFDS,0.68,6 of 6

The last 8 entries again:

CDR-H1	CDR-H2	CDR-H3	mean, log10 nM	detected
GQSLDDYGIS	VIYADGQRKAAADEVK	GENAGTFDI	not detected	0 of 6
GFDLNEYGIS	VIYADGMRTFYADSVK	GENAGTFDQ	-0.27	6 of 6
GYDLDDYGIS	VIYADGKRTSYAESVK	GLIGGSLSN	not detected	0 of 6
GFTLNMYGIS	VIYSDGRRTFYGDSVK	GRKAGTFDS	not detected	0 of 6
GFDLNEYGIS	VIYADGRRTFYSDSVK	GQVAGTFDS	0.96	1 of 6
GFTLNSYGIS	VIYADPRRTFYGDSVK	GGAAGTFDS	1.75	1 of 6
GFDLNEYGIS	VIYADGRRTAYVDSVK	GEQAGTFDV	-0.44	6 of 6
GFELNSYGIS	VIYSDGRRTFYADSVK	GATAGTFDS	0.68	6 of 6

The range of this assay differs from that of the first round, and the authors advise against merging the two.
Of ten entries with the parent sequence, four were seen in most replicates (averages 0.34 to 2.37), three in one and three in none, so single entries are noisy.
The authors averaged sequences with at least three values out of six and counted those with two or fewer as poor binders.
Empty control strains, which show no peptide, gave a signal in 1% of pairings with all heavy chain designs; the median was 2.08 and 95% of these signals were weaker than 0.84. No background was subtracted.